This is an account of results in publication PMC9428891 (Frontiers in Pharmacology, 2022).

Chains of the proteins cited; added tags and fusions are not shown. Residues count along the entry.
UniProt O42275, 24-633: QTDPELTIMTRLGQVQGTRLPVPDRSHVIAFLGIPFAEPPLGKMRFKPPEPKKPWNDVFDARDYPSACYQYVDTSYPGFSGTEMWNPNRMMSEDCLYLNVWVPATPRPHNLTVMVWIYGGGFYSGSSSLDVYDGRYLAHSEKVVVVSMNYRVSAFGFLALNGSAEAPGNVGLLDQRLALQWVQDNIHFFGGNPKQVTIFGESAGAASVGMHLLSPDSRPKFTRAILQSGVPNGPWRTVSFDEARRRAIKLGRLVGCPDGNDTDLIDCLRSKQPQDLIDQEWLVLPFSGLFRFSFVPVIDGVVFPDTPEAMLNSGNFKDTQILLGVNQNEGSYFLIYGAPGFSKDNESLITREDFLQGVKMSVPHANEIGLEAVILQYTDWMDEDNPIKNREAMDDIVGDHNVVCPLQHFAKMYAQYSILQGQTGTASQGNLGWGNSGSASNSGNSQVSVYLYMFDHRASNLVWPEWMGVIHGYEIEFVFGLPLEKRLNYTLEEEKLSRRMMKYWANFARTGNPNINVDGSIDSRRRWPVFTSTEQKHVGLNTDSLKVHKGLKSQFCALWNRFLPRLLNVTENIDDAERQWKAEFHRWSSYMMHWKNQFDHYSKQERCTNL

This test deals with T1, acetylcholinesterase (AChE) (Electrophorus electricus, UniProt O42275).
T1 construct: purchased Sigma Aldrich C3389-2KU
Nature of the test: biochemical. Particulars: read-out: K i ± SEM. The method, then: Enzyme-substrate (ES) is the complex of AChE and acetylcholine, while P represents the product formed after the reaction’s completion. Dissociation constant values were calculated through Dixon plots, their secondary replots, and the Lineweaver-Burk plot ([Khan et al., 2021]).
The values of K m, K i, and V max were determined from Dixon and Lineweaver-Burk plots using no linear regression equation.
GraFit software ([Khan et al., 2021]) was utilized for plotting graphs. The values of the correlation coefficients, slopes, intercepts, and their standard errors were determined by the linear regression equation using the same program.
During kinetic studies, the reaction rate was measured and the effect of different concentrations of a substrate on the enzyme was investigated. The kinetic study of enzymes helped to determine the catalytic mechanism of enzymes. […] The rate of reaction [V] was plotted against various substrate concentrations [S] at constant enzyme concentration. Initially, the rate of reaction [V] increases as substrate concentration increases, and at higher [S], the enzyme becomes saturated, and the rate of reaction reaches V max, which is referred to as the maximum rate of reaction.
The dissociation constant K i values were found using three different methods. […]

For `CCSc1nc2ccccc2n1CC(=O)N/N=C/c1c2ccccc2cc2ccccc12` [Compound 14], the Ki is 19.2 ± 1.9 µM.
